# Measured affinities in a library of Ab-91 heavy chain variants

Source: Engelhart et al. 2022 (doi:10.1038/s41597-022-01779-4), MIT Lincoln Laboratory and A-Alpha Bio; data file from the FLAb repository.

Antigen: PDVDLGDISGINAS, a 14-residue peptide of the SARS-CoV-2 spike HR2 region.

Parent: Ab-91, a human scFv built as VL, a 15-residue (Gly4Ser)3 linker, VH. Only the CDRs of the heavy chain vary.
VL: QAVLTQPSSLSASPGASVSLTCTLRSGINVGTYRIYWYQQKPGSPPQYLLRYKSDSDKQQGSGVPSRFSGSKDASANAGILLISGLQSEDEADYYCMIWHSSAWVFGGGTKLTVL
VH: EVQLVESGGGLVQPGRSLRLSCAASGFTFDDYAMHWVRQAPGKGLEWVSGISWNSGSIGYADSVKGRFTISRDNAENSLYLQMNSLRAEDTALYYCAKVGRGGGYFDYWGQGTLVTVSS

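The parent was found by panning a naive human phage display library on the peptide. Variants in AAYL51 differ from the parent at up to three CDR positions; double and triple changes were sampled at random. The assay is AlphaSeq: two haploid yeast populations carry antibody and antigen on their surface. Mating (16 h, 30 °C) was followed by selection of diploids and sequencing of their barcodes. Scores were corrected for input abundance and mapped to Kd with protein pairs of known affinity run in the same pool. Mating was done three times.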

Each variant is given by its three heavy chain CDRs, as the data file delimits them; those of the parent are GFTFDDYAMH, GISWNSGSIGYADSVK, VGRGGGYFDY.
The read-out is the apparent dissociation constant on a log10 scale (nM): the lower, the stronger.
Where no diploid with the target was found in that replicate, the entry reads "nd": below detection, most likely a poor binder, though not proof of it.
In this assay the parent's reference entry averaged 1.86; its copy inside this library read 0.88.
Background: pairings of library AAYL51 with three empty control strains gave a value in 21% of cases (median 4.54, 5th percentile 3.26). Values in that range, when seen in few replicates, are hard to tell from nonspecific mating. For each scFv, signals with the empty controls are counted beside the result, with their mean in brackets.

{"CDR-H1": "GQTFDDYYMH", "CDR-H2": "GISWNSGSIGYADSVK", "CDR-H3": "VGRGGGYKDY", "replicates, log10 nM": "3.36 / nd / nd", "signal with controls": "4/9 (4.62)"}
{"CDR-H1": "GETFDDYAMM", "CDR-H2": "GISWNSGSIWYADSVK", "CDR-H3": "VGRGGGYFDY", "replicates, log10 nM": "4.53 / 6.72 / 4.91", "signal with controls": "6/9 (4.91)"}
{"CDR-H1": "TFTFDDYAMH", "CDR-H2": "GASWNSGSIGYADSVK", "CDR-H3": "VGRGGGYFDY", "replicates, log10 nM": "4.12 / nd / nd", "signal with controls": "0/9"}
{"CDR-H1": "GFGFDDTAMH", "CDR-H2": "GISWNVGSIGYADSVK", "CDR-H3": "VGRGGGYFDY", "replicates, log10 nM": "nd / nd / nd", "signal with controls": "0/9"}
{"CDR-H1": "GFTFDDYAMH", "CDR-H2": "GRSWNSGSIKYADSVK", "CDR-H3": "VGRTGGYFDY", "replicates, log10 nM": "nd / nd / nd", "signal with controls": "1/9 (4.49)"}
{"CDR-H1": "GFKFDDYWMH", "CDR-H2": "GICWNSGSIGYADSVK", "CDR-H3": "VGRGGGYFDY", "replicates, log10 nM": "4.72 / nd / nd", "signal with controls": "2/9 (4.42)"}
{"CDR-H1": "GFTFDDYAMV", "CDR-H2": "GISWNSGSIGYADLVK", "CDR-H3": "VGIGGGYFDY", "replicates, log10 nM": "nd / nd / nd", "signal with controls": "0/9"}
{"CDR-H1": "GFTFDDYAMH", "CDR-H2": "GISWRSGSIGYADSVA", "CDR-H3": "VRRGGGYFDY", "replicates, log10 nM": "3.95 / nd / nd", "signal with controls": "3/9 (4.54)"}
{"CDR-H1": "GFTFDDYAMH", "CDR-H2": "GISWNSGSHGYADSFK", "CDR-H3": "VGRGGGYFSY", "replicates, log10 nM": "nd / nd / nd", "signal with controls": "0/9"}
{"CDR-H1": "GFTFDDYATH", "CDR-H2": "GISWWSGSIQYADSVK", "CDR-H3": "VGRGGGYFDY", "replicates, log10 nM": "nd / nd / nd", "signal with controls": "0/9"}
{"CDR-H1": "GFTFDDYAMH", "CDR-H2": "GISWNSGSIGKADSVT", "CDR-H3": "VGRGGGTFDY", "replicates, log10 nM": "nd / nd / nd", "signal with controls": "0/9"}
{"CDR-H1": "GFTFDDYAMH", "CDR-H2": "GISWNSGKIGYADSVK", "CDR-H3": "VGTGGGYWDY", "replicates, log10 nM": "nd / nd / nd", "signal with controls": "0/9"}
{"CDR-H1": "GYTFDDYAMH", "CDR-H2": "GISWNSGSIGYADSVK", "CDR-H3": "LVRGGGYFDY", "replicates, log10 nM": "nd / nd / nd", "signal with controls": "1/9 (3.07)"}
{"CDR-H1": "GFTFDMYAMH", "CDR-H2": "GISHRSGSIGYADSVK", "CDR-H3": "VGRGGGYFDY", "replicates, log10 nM": "nd / nd / nd", "signal with controls": "1/9 (3.60)"}
{"CDR-H1": "GVTFDDYAMH", "CDR-H2": "GMSWNSGSIGYADSVR", "CDR-H3": "VGRGGGYFDY", "replicates, log10 nM": "4.01 / 5.10 / 4.19", "signal with controls": "5/9 (4.85)"}
{"CDR-H1": "GFTFDQYACH", "CDR-H2": "GISWNSGSIGYADSVK", "CDR-H3": "VGRGGGAFDY", "replicates, log10 nM": "3.69 / nd / nd", "signal with controls": "2/9 (3.89)"}
{"CDR-H1": "GFTFQDYAMH", "CDR-H2": "GISWNSGSIGHADGVK", "CDR-H3": "VGRGGGYFDY", "replicates, log10 nM": "2.43 / 2.79 / 2.70", "signal with controls": "4/9 (4.62)"}
{"CDR-H1": "GFTFDDYAMH", "CDR-H2": "GISWNSGSIGYADSVK", "CDR-H3": "VWRFGGYFEY", "replicates, log10 nM": "nd / nd / nd", "signal with controls": "0/9"}
{"CDR-H1": "HETFDDYAMH", "CDR-H2": "GISDNSGSIGYADSVK", "CDR-H3": "VGRGGGYFDY", "replicates, log10 nM": "nd / nd / nd", "signal with controls": "0/9"}
{"CDR-H1": "GFTFDDYWMH", "CDR-H2": "AISWNSGSIGYADSDK", "CDR-H3": "VGRGGGYFDY", "replicates, log10 nM": "nd / nd / nd", "signal with controls": "1/9 (4.07)"}
{"CDR-H1": "GFSFDDYAMH", "CDR-H2": "GISWNSGSIGTADSVK", "CDR-H3": "VGYGGGYFDY", "replicates, log10 nM": "3.32 / 3.01 / 3.30", "signal with controls": "5/9 (4.75)"}

Repeated from above, the 2 best binders with a signal in all replicates:

{"CDR-H1": "GFTFQDYAMH", "CDR-H2": "GISWNSGSIGHADGVK", "CDR-H3": "VGRGGGYFDY", "replicates, log10 nM": "2.43 / 2.79 / 2.70", "signal with controls": "4/9 (4.62)"}
{"CDR-H1": "GFSFDDYAMH", "CDR-H2": "GISWNSGSIGTADSVK", "CDR-H3": "VGYGGGYFDY", "replicates, log10 nM": "3.32 / 3.01 / 3.30", "signal with controls": "5/9 (4.75)"}